Source: patent US11377476B2, “Ras inhibitory peptides and uses thereof” (President and Fellows of Harvard College, priority 2014, dated 2022)

Assays:
[1] = Circular dichroism spectra and thermal melting at 222 nm; assay type: physicochemical; details: CD at 222 nm, pH 8.0 (text: neutral pH for 225-1)
[2] = literature value for aPP; cited from earlier work

| Tm [1] | Sequence | melting transition (Tm) [2] |
| --- | --- | --- |
| > 77 °C | GPRRPRYPGDDAPVEDLIRFYNDLQQYLNVVA [aPP-M] |  |
| 64.5 °C | GPSQPTYPGDDAPVEDLIRFYNDLQQYLNVVA [aPP, reference compound] | 62 °C |
